Compound activity deposited in PubChem by National Center for Advancing Translational Sciences (NCATS).
An excerpt weighted towards active compounds, which were near 3.7% of everything screened.
ClpP mod = qHTS Assay for Activators of ClpP; ATP-dependent Clp protease proteolytic subunit (Bacillus subtilis (strain 168)), P80244; purified B. subtilis ClpP, FRET peptide cleavage, 20 min; Potency, µM (doses to about 57.5 µM), for the others: at the highest dose activity change, negative = active; hit rate 1.9% among 340,000; AID 651965, 2013; active means well fitted falling curve with a large enough effect; inconclusive means small, poorly fitted or top-dose-only effect; inactive means no such curve, though single readings can be large or run the other way; further: potency means the concentration at half of the fitted maximal effect; the source files actives as falling curves though it sought activators and does not explain the sign; nearly all actives have a fitted effect of over 65% in size
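ClpP 10 microg/mL final, pH 8 Tris/KCl buffer with BSA, glycerol, Tween-20; compound pinned in; FRET-FV substrate; RT 20 min; Ex320/Em430; ΔFRET vs ADEP 5.8 microM, DMSO, no enzyme.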
A549 tox-1 = counter-screen for Nrf2 inhibitors: cytotoxicity in A549 cells. A549 ARE-Fluc cells, CellTiter-Fluor viability, 18-24 h. Potency, µM (doses to about 46 µM), for the others: top-dose activity change, negative = cytotoxicity, usual class: inhibitors. hit rate 0.16% among 390,000. AID 504648; further: potency means the concentration at half of the fitted maximal effect; on the % scale 0 is the no-effect control and ±100 the full control effect
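Cytotoxicity counterscreen: CellTiter-Fluor fluorescence was measured in A549 ARE_Fluc cells after 18-24 h of compound exposure in a concentration series. The subsequent BugLite luminescent read reports ARE-luciferase activity.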
miR-21 reporter = miR-21 reporter, rising signal | HeLa miR-21 FLuc reporter, luciferase, 48 h | Potency, µM (highest dose often 38.3 µM), for inactives: at the top dose reporter change, positive = more light | 340,000 tested, under 10 active | AID 2288; active = well fitted rising curve with a large enough effect; inconclusive = small, poorly fitted or top-dose-only effect; inactive = no such curve, though single readings can be large or run the other way;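 further: % of control where 0% means no effect; miR-21 action dims this reporter so a rising signal means less miR-21 action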
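HeLa cells endogenously expressing miR-21, stably carrying CMV-driven firefly luciferase with a downstream miR-21 binding site, 2000 cells/well. Titrations up to approximately 40 uM, 48 hours; luciferase luminescence read.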
IL-2 act = IL-2 activation; hit rate 0.065% among 360,000; activation, % (series mostly up to about 46 µM); AID 652025; IL-2 activation reporter assay, cell-based qHTS; stimulated with anti-CD3/CD4/CD28 beads; in transgenic mouse T cells; in the data active means activation above about 50%; inconclusive means mostly about 30% to 49%; further: 0% is about no effect
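First, unstimulated transgenic mouse T cells were exposed to compound for 60 min. Next, anti-CD3/anti-CD4-coated beads with anti-CD28 were added. Finally, after 18 h at 37 degrees C, EGFP and DsRed were imaged.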
Nrf2 activator = activates Nrf2 signaling; AREc32 ARE-luciferase reporter (MCF7-derived line), luminescence, 24 h; Potency, µM (doses to about 46.1 µM), for inactives: top-dose activation, hits mostly activators; hit rate 0.31% among 410,000; AID 624171; further: potency means the concentration at half of the fitted maximal effect; % of control where 0% means no effect; nearly all actives have a fitted effect of over 65% in size
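ARE-driven firefly luciferase activity in AREc32 cells measured after a 24 hr compound exposure at 37 deg C, using Steady-Glo reagent and a 30 min room-temperature hold.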
Nrf2 block = inhibitors of Nrf2 signaling. A549 ARE-Fluc reporter, luciferase luminescence, 18-24 h. Potency, µM (series often up to 46 µM), for the others: top-dose activity change, negative = inhibition, most hits filed as inhibitors. hit rate 2.1% among 360,000; further: potency means the concentration at half of the fitted maximal effect; on the % scale 0 is the no-effect control and ±100 the full control effect; nearly all actives have a fitted effect of over 60% in size
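Two sequential reads on A549 ARE_Fluc cells exposed to compound for 18-24 h: a CellTiter-Fluor fluorescence read for viability, then a luciferase luminescence read for Nrf2/ARE activity.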
FLuc enzyme inh = blocks purified firefly luciferase in Nrf2 counterscreen; shares compounds with Nrf2 block; Potency, µM (series often up to 57.5 µM), inactives show at the top dose activity change, negative = inhibition, usual class: inhibitors; hit rate 4% among 1,400; purified firefly luciferase, luminescence inhibition; further: potency means the concentration at half of the fitted maximal effect; on the % scale 0 is the no-effect control and ±100 the full control effect; nearly all actives have a fitted effect of over 65% in size
A549 tox-2 = toxic to A549 ARE-Fluc cells in Nrf2 counterscreen. shares compounds with Nrf2 block. A549 ARE-Fluc cells, cytotoxicity counterscreen. Potency, µM (series often up to 46.1 µM), inactives show top-dose activity change, negative = cytotoxicity, hits mostly inhibitors. hit rate 2% among 1,400;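 further: potency means the concentration at half of the fitted maximal effect; cells exposed to compounds for 18 to 24 hours; on the % scale 0 is the no-effect control and ±100 the full control effect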
Nrf2 ARE inh = reduces Nrf2 ARE reporter signal in A549 cells; A549 ARE-firefly luciferase reporter, luminescence; Potency, µM (top dose mostly 46.1 µM), inactives show at the highest dose activity change, negative = inhibition, hits mostly inhibitors; AID 720524; shares compounds with Nrf2 block; hit rate 74% among 1,400; further: potency means the concentration at half of the fitted maximal effect; on the % scale 0 is the no-effect control and ±100 the full control effect; nearly all actives have a fitted effect of over 65% in size
Numbers without * were called inactive; ? = inconclusive; · = no result given. Unless noted, the call rests on the fitted dose curve; in most records, active means well fitted curve in the direction sought with a large enough effect; inconclusive means small, poorly fitted or top-dose-only effect, or another doubt; inactive means no such curve, though single readings can be large; an effect the other way counts as inactive or inconclusive.

Preview, 3 compounds:
#1 Cc1nc(S(=O)(=O)N2CCOCC2)c(C#N)c(C)c1Cl
#2 Cc1nc(S(=O)(=O)NC2CCCCC2)c(C#N)c(C)c1Cl
#3 Cc1nc(N2C(=O)c3oc4ccccc4c(=O)c3C2c2cccc(OCCC(C)C)c2)sc1C (stereo unspecified)

assay / compound	1	2	3
ClpP mod	0%	1%	2%
A549 tox-1	-18%	-9%	-1%
miR-21 reporter	-1%	4%	2%
IL-2 act	2	1	·
Nrf2 activator	?	13µM*	-1%
Nrf2 block	-25%	-9%	11%
FLuc enzyme inh	·	·	·
A549 tox-2	·	·	·
Nrf2 ARE inh	·	·	·

All compounds of this part, previewed entries included:
#1 Cc1nc(S(=O)(=O)N2CCOCC2)c(C#N)c(C)c1Cl
#2 Cc1nc(S(=O)(=O)NC2CCCCC2)c(C#N)c(C)c1Cl
#3 Cc1nc(N2C(=O)c3oc4ccccc4c(=O)c3C2c2cccc(OCCC(C)C)c2)sc1C (stereo unspecified)
#4 CC1(c2ccc3ccccc3c2)NC(=O)N(CC(=O)O)C1=O (stereo unspecified)
#5 CC1(c2ccc3ccccc3c2)NC(=O)N(CC(=O)N2CCN(Cc3ccc(C#N)cc3)CC2)C1=O (stereo unspecified)
#6 COc1cccc(NC(=O)CSCc2cc(=O)c3ccc(C)c(C)c3[nH]2)c1
#7 Fc1cccc(F)c1/C=C/c1ccc2ccccc2n1
#8 Fc1ccc(/C=C/c2ccc3ccccc3n2)cc1

assay / compound	1	2	3	4	5	6	7	8
ClpP mod	0%	1%	2%	·	-4%	-2%	-23%	-20%
A549 tox-1	-18%	-9%	-1%	-4%	-14%	-10%	15%	·
miR-21 reporter	-1%	4%	2%	10%	·	-2%	-23%	·
IL-2 act	2	1	·	0	-4	·	0	·
Nrf2 activator	?	13µM*	-1%	0%	2%	5%	?	·
Nrf2 block	-25%	-9%	11%	4%	0.41µM*	·	?	·
FLuc enzyme inh	·	·	·	·	0%	·	·	-25%
A549 tox-2	·	·	·	·	2%	·	·	?
Nrf2 ARE inh	·	·	·	·	0.82µM*	·	·	7.3µM*

As entered above.
Under ClpP mod, #8 has -20%
Under ClpP mod, #3 has 2%
Under Nrf2 block, #1 has -25%

(cont.)
#9 CNS(=O)(=O)c1cn(CC(=O)N2CCN(c3cccc(Cl)c3)CC2)cc1S(=O)(=O)NC
#10 Cc1cc[n+](C(C)C(=O)c2ccc(-c3ccccc3)cc2)cc1 (stereo unspecified)
#11 Cc1ccc[n+](C(C)C(=O)c2ccc(-c3ccccc3)cc2)c1 (stereo unspecified)
#12 O=C(Nc1ccncc1)c1cccc(S(=O)(=O)N2CCc3ccccc32)c1
#13 CCOC(=O)c1sc(NC(=O)c2cccc(S(=O)(=O)N3CCc4ccccc43)c2)c(C#N)c1C
#14 CCOC(=O)c1sc(NC(=O)c2cc(-c3ccccc3)nc3ccccc23)c(C#N)c1C
#15 Cc1ccccc1CN1CCCN(CC(=O)Nc2ccc3c(c2)OCCO3)S1(=O)=O
#16 Cc1nc2cccnc2n1C1CCN(S(C)(=O)=O)CC1
#17 CCCS(=O)(=O)c1c(S(=O)(=O)CCC)c2cc(CC)ccn2c1C(=O)c1ccc(Cl)cc1
#18 O=C(Cn1ncc2c3ccccc3n(Cc3cccc(Cl)c3)c2c1=O)NCc1cccs1

assay / compound	9	10	11	12	13	14	15	16	17	18
ClpP mod	0%	·	-28%	·	4%	1%	1%	-1%	-2%	7%
A549 tox-1	3%	-24%	0%	-20%	?	?	-3%	-7%	-1%	6%
miR-21 reporter	4%	?	28%	·	8%	6%	7%	0%	6%	-6%
IL-2 act	·	0	-1	-4	-4	-2	·	·	·	·
Nrf2 activator	1%	5%	0%	3%	0%	0%	0%	0%	-1%	0%
Nrf2 block	-6%	8.2µM*	-20%	8.2µM*	5.8µM*	4.6µM*	·	19%	4%	6%
FLuc enzyme inh	·	3%	·	0%	-18%	11µM*	·	·	·	·
A549 tox-2	·	-16%	·	-12%	?	?	·	·	·	·
Nrf2 ARE inh	·	9.2µM*	·	7.3µM*	2.9µM*	6.5µM*	·	·	·	·
